# According to ChEMBL document CHEMBL5236649:
# Activity calls are given as the source filed them. The rule behind the calls is not given here.
# Target: Alpha-synuclein (Homo sapiens) (UniProt P37840)
# Experiment: Inhibition of alpha-Synuclein (unknown origin) aggregation assessed as reduction in alpha-Syn fibrillation by measuring fluorescence intensity at 172.9 uM incubated for 30 days by ThT fluorescence assay
# Conditions: time 30.0 day
row,SMILES,inhibition
1,CCCN(CCc1cc(O)c(CCN(CCC)[C@H]2CCc3c(O)cccc3C2)cc1O)[C@H]1CCc2c(O)cccc2C1,Active
2,CCCN(CCc1cc(O)c(CCN(CCC)[C@H]2CCc3nc(N)sc3C2)cc1O)[C@H]1CCc2nc(N)sc2C1,Active
